# Assay results: PubChem BioAssay AID720621 (The Scripps Research Institute Molecular Screening Center, 2013)
# Chains of the proteins cited; added tags and fusions are not shown. Lines headed by an entry give the natural chain unless they say otherwise; changes in a name come on top.
# UniProt P02675: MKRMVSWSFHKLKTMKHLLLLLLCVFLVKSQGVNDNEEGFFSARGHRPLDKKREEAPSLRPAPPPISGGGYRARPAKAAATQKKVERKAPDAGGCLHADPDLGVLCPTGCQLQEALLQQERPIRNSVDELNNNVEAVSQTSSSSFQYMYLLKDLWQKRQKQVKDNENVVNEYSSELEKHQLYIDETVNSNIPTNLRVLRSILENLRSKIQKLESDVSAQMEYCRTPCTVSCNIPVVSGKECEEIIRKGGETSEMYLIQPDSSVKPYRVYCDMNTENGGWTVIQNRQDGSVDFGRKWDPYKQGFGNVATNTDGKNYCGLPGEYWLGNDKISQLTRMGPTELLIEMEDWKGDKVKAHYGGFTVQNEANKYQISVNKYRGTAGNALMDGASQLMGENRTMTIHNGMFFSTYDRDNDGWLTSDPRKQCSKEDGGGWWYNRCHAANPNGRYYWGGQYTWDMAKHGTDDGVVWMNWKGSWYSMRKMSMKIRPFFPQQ
# This is a selection; strong and weak results do not stand in their true shares. Calls of active or inactive are those of the source.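 Rule for the calls: active = inhibition above the mean of test compounds lying between the control limits plus 3 SD of those (cut at about 14% in these data); inactive = the rest.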
# Biological target: Fibrinogen beta chain (Homo sapiens) (UniProt P02675)
# Test: DD(E) binders in alternate-peptide displacement assay, confirmation, counter-screen for fibrin DD(E)-Tn6 binding project, biochemical, fluorescence polarization, human fibrin (AID 720621);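 note: 0% = median of compound wells and 100% = wells with Aha-Tn7 blocking peptide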
# Conditions: TRITC-Tn6 fluorescence polarization displacement, at 8.3 µM, stronger effect = higher value, 0% = median of compound wells, not DMSO
smiles,measurement,value
Nc1cccc2c([As](=O)(O)O)cccc12,inhibition,inactive: 3.01%
